Target: T1, ecNOS (Bos taurus, UniProt P29473)
T1 construct: the intimal surface of fresh bovine aortae was scraped and homogenized; from tissue; host or cells: homogenate of intimal scrapings of fresh bovine aortae
Experiment: ecNOS activity from intimal scrapings of fresh bovine aortae (conversion of [3H]-L-arginine to [3H]-L-citrulline)
Assay type: biochemical
Details: ecNOS (Table 2); read-out: EC50 for inhibition of ecNOS activity in tissue homogenates
Description: The intimal surface of fresh bovine aortae was scraped in the presence of homogenation buffer composed of 50 mM Tris-HCl, 0.1 mM ethylenediamine tetraacetic acid (EDTA) and 0.1 mM ethyleneglycol bis (beta-aminoethyl ether) (EGTA). Conversion of [^3 H]-L-arginine to [^3 H]-L-citrulline was measured in the homogenates as follows: cell homogenate (50 μl) was incubated in the presence of [^3 H]-L-arginine (10 μM, 5 kBq/tube), NADPH (2 mM), calmodulin (30 nM), tetrahydrobiopterin (5 μM) and calcium (2 mM) for 20 minutes at 37° C. in N-2-hydroxethyl piperazine-N-2-ethane sulfonic acid (HEPES) buffer (pH 7.5). Reactions were stopped by dilution with 1 ml of ice cold HEPES buffer (pH 5.5) containing EGTA (2 mM) and EDTA (2 mM). Reaction mixtures were applied to Dowex 50W (Na^+ form) columns and the eluted [^3 H]-L-citrulline activity was measured by scintillation counting. bNOS activity was measured using similar methods in homogenates of whole rat brains.
For a preparation rich in ecNOS, the intimal surface of fresh bovine aortae was scraped and homogenized. The homogenization buffer was composed of 50 mM tris-HCL, 0.1 mM EDTA, 0.1 mM EGTA and 1 mM phenylmethylsulfonyl chloride (pH 7.4). […] Conversion of [^3 H]-L-arginine to [^3 H]-L-citrulline was measured in the homogenates as described in Example 3 above.

Structure (SMILES): N=C(NCCC[C@H](N)C(=O)O)N[N+](=O)[O-] [L-NA, N^G -Nitro-L-arginine, reference compound]
- EC50: 2 µM

Reference: patent US5929063A, “Mercapto and seleno derivatives as inhibitors of nitric oxide synthase” (priority 1995, dated 1999)
